Screening results from PubChem.
Rango release inh: prevents RanGTP from dissociating the Rango-importin beta complex | O95149+P62826 | Biochemical FRET Rango-importin beta, RanGTP-induced dissociation | Potency, µM (doses to about 46.1 µM), without a hit: top-dose activity change, negative = inhibition | actives 0.071% (n = 340,000) | AID 540253; calls by dose curve; further: % of control where 0% means no effect; nearly all actives have a fitted effect of over 45% in size
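Compounds preincubate 5 min with complex of recombinant Rango and importin beta in PBS with 1 mM DTT. Ran (0.6 uM) loaded with 2 mM GTP plus 0.2 uM RCC1 starts dissociation; FRET is recorded 45 min later.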
EPAC1 agonist: agonists of human EPAC1; Potency, µM (series often up to 154 µM), for inactives: at the top dose activation, hits mostly activators; actives 0.073% (n = 360,000); EPAC1 agonist qHTS, biochemical assay; response scale: 100% = response to 6.5 mM cAMP; O95398; AID 720707; further: nearly all actives have a fitted effect of over 60% in size
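Nucleotide exchange by EPAC1 (100 nM) on Rap1B–BODIPY-GDP (250 nM) in the presence of 50 uM GDP is tracked fluorescently at 480/540 nm over 30 min. Signals are normalized to a 6.5 mM cAMP control.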
Rango complex inh: inhibitors of Rango-importin beta complex formation | Rango CFP/YFP FRET sensor + importin beta, 45 min | Potency, µM (doses to about 92.2 µM), for the others: at the highest dose inhibition of complex formation | actives 0.031% (n = 340,000); calls by dose curve;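 further: 0% = DMSO wells and 100% = buffer wells lacking importin beta; nearly all actives have a fitted effect of over 15% in size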
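Inhibition scored from the CFP 486 nm/YFP 530 nm FRET ratio 45 min after adding 0.125 microM importin beta to 50 nM Rango biosensor preincubated 5 min with compound (room temperature, PBS with DTT, Tween-20, BSA). No-importin wells as positive control.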
EPAC1 antag: EPAC1 (human) antagonism. O95398. EPAC1 GEF assay, Rap1b-BODIPY-GDP exchange fluorescence. Potency, µM (doses to about 115 µM), for the others: top-dose activity change, negative = inhibition, hits mostly inhibitors. actives 0.14% (n = 360,000). AID 720709;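 further: plate controls were vehicle for no effect and positive control for full effect; nearly all actives have a fitted effect of over 50% in size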
EPAC2 antagonist: antagonists of human EPAC2 | Q8WZA2 | EPAC2 GEF exchange of Rap1B-BODIPY-GDP, fluorescence | Potency, µM (titrated, usually from 114 µM), inactives show at the highest dose activity, negative = inhibition, usual class: inhibitors | actives 0.18% (n = 360,000) | AID 720708; further: on the % scale 0 is the no-effect control and ±100 the full control effect; nearly all actives have a fitted effect of over 45% in size
EPAC2 agonist: agonists of human EPAC2 (RAPGEF4); Q8WZA2; EPAC2 activation, biochemical qHTS; response scale: 100% = 6.5 mM cAMP response; Potency, µM (doses to about 154 µM), without a hit: at the top dose activation, most hits filed as activators; actives 0.079% (n = 360,000); AID 720711; further: nearly all actives have a fitted effect of over 50% in size
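Setup: EPAC2 100 nM, labeled Rap1B complex 250 nM, free GDP 50 uM. Compound titrations pinned in, brief spin, 5 min room temperature incubation. Kinetic fluorescence read over 30 min, normalized to 6.5 mM cAMP.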
An asterisk follows results filed as active; ? = inconclusive; / = not tested or not shown. An excerpt weighted towards active compounds, which were near 0.43% of everything screened. Unless noted, the call rests on the fitted dose curve; in most records, active means well fitted curve in the direction sought with a large enough effect; inconclusive means small, poorly fitted or top-dose-only effect, or another doubt; inactive means no such curve, though single readings can be large; an effect the other way counts as inactive or inconclusive. Potency means the concentration at half of the fitted maximal effect.

Field names: A = Rango release inh; B = EPAC1 agonist; C = Rango complex inh; D = EPAC1 antag; E = EPAC2 antagonist; F = EPAC2 agonist
1. Cc1[nH]n(-c2ncc(-c3ccc(Cl)cc3)s2)c(=O)c1C(c1ccc(Cl)cc1)C(C#N)C#N (stereo not given)
  A = 24%	B = 0%	C = 0%	D = 40µM*	E = -15%	F = 1%

2. COc1ccc(C(c2c(C)[nH]n(C(N)=S)c2=O)C(C#N)C#N)cc1 (stereo not given)
  A = -2%	B = -9%	C = -1%	D = 7%	E = 10%	F = 1%

3. CCCCNC(=O)c1nc(-c2cccnc2)oc1-c1ccc(OC(F)(F)F)cc1
  A = /	B = 6%	C = /	D = -24%	E = -12%	F = -4%

4. COc1cc(OC)c(-c2cc(C(=O)O)ccc2OC)c(OC)c1
  A = -6%	B = -16%	C = 4%	D = 89µM*	E = 0%	F = -6%

5. COC(=O)c1ccc(OC)c(-c2c(OC)cc(OC)cc2OC)c1
  A = -21%	B = -8%	C = -2%	D = 1%	E = -8%	F = -12%

6. CCC(=O)N1CCC(C)(C(=O)NCc2cccc(OC)c2)C1 (stereo not given)
  A = /	B = 4%	C = /	D = 4%	E = 9%	F = 0%

7. N#CC(Sc1ccccn1)c1ccc(Cl)cc1Cl (stereo not given)
  A = -7%	B = 5%	C = -1%	D = -13%	E = 25µM*	F = 21%

8. CCCCNC(=O)C1(C)CCN1C(=O)c1ccc2c(c1)C(C)(C)CCC2(C)C (stereo not given)
  A = /	B = 1%	C = /	D = -3%	E = -17%	F = -1%

9. O=C1/C(=C/C=C/c2ccco2)SC(=S)N1NS(=O)(=O)c1ccccc1
  A = -24%	B = 6%	C = ?	D = 100µM*	E = ?	F = -1%

10. O=C1/C(=C/c2cccs2)SC(=S)N1NS(=O)(=O)c1ccccc1
  A = -9%	B = 1%	C = 2%	D = -21%	E = ?	F = -4%

Just EPAC2 agonist, Rango complex inh and EPAC2 antagonist, for some of the entries so far:
| # | mol | EPAC2 agonist | Rango complex inh | EPAC2 antagonist |
| --- | --- | --- | --- | --- |
| 4 | COc1cc(OC)c(-c2cc(C(=O)O)ccc2OC)c(OC)c1 | -6% | 4% | 0% |
| 5 | COC(=O)c1ccc(OC)c(-c2c(OC)cc(OC)cc2OC)c1 | -12% | -2% | -8% |

2 records drawn at random from those above:
Field names: A = Rango release inh; B = EPAC1 agonist; C = Rango complex inh; D = EPAC1 antag; E = EPAC2 antagonist; F = EPAC2 agonist
10. O=C1/C(=C/c2cccs2)SC(=S)N1NS(=O)(=O)c1ccccc1
  A = -9%	B = 1%	C = 2%	D = -21%	E = ?	F = -4%

1. Cc1[nH]n(-c2ncc(-c3ccc(Cl)cc3)s2)c(=O)c1C(c1ccc(Cl)cc1)C(C#N)C#N (stereo not given)
  A = 24%	B = 0%	C = 0%	D = 40µM*	E = -15%	F = 1%

(next part)
Field names: A = Rango release inh; B = EPAC1 agonist; C = Rango complex inh; D = EPAC1 antag; E = EPAC2 antagonist; F = EPAC2 agonist
11. CCOC(=O)C1=C(N)c2ccccc2CC1C1CCCC1 (stereo not given)
  A = -1%	B = -13%	C = -1%	D = -6%	E = 16µM*	F = 0%

12. Cn1c(-c2sccc2OCc2ccc(Cl)cc2Cl)n[nH]c1=S
  A = 15%	B = -13%	C = 0%	D = 89µM*	E = -14%	F = 7%

13. NC(Cc1ccc(F)cc1)c1csc(NC(=O)NC(c2ccccc2)c2ccccc2)n1 (stereo not given)
  A = /	B = -17%	C = /	D = -14%	E = -6%	F = 3%

14. Cn1nc(C2CC2)cc1NC(=O)C1(C)CCN1C(=O)c1ccccc1CCc1ccccc1 (stereo not given)
  A = /	B = -3%	C = /	D = -18%	E = 2%	F = 12%

15. CCOC(=O)CC1C(=O)NCCN1C(=O)c1ccc(F)cc1F (stereo not given)
  A = -17%	B = 7%	C = -2%	D = -18%	E = 0%	F = -8%

16. CCOC(=O)CC1C(=O)NCCN1C(=O)c1cccc(C(F)(F)F)c1 (stereo not given)
  A = 2%	B = -4%	C = 1%	D = 2%	E = 20µM*	F = 3%

17. N=C(N)c1ccc(N=Nc2c(O)ccc3c2[nH]c2ccccc23)cc1
  A = -3%	B = ?	C = 58µM*	D = 40µM*	E = 50µM*	F = ?

18. COc1ccc(C2=CC(c3ccc(OC)c(OC)c3)NC(=S)N2)cc1 (stereo not given)
  A = ?	B = -4%	C = ?	D = 5%	E = -1%	F = -3%

19. COc1cccc(C2=CC(c3ccc(OC)c(OC)c3)NC(=S)N2)c1 (stereo not given)
  A = 7.3µM*	B = 5%	C = ?	D = -10%	E = 1%	F = 12%

20. COc1ccc(/C=N/NC(=O)c2cc(O)c(O)c(O)c2)cc1Cn1cc([N+](=O)[O-])cn1
  A = -13%	B = 3%	C = 0%	D = 32µM*	E = -5%	F = 1%

New compounds follow.
| # | Structure | Rango release inh | EPAC1 agonist | Rango complex inh | EPAC1 antag | EPAC2 antagonist | EPAC2 agonist |
| --- | --- | --- | --- | --- | --- | --- | --- |
| 21 | CC1=NN(c2nc(-c3ccccc3)cs2)C(=O)C1 | 7% | -14% | 0% | 79µM* | 1% | 2% |
| 22 | CSc1ccc(CN2C(=O)C(F)(F)Oc3c(C(C)=O)cccc32)cc1 | / | 2% | / | -10% | 8% | 3% |
| 23 | O=C(O)C(c1ccccc1)N1C(=O)/C(=C\c2ccc(-c3ccc(Br)cc3)o2)SC1=S (stereo not given) | ? | 7% | ? | -6% | 86% | -21% |
| 24 | O=C(O)C(c1ccccc1)N1C(=O)/C(=C\c2ccc(-c3ccccc3Cl)o2)SC1=S (stereo not given) | ? | -131% | ? | 42% | 90% | 112µM* |
| 25 | O=C1/C(=C/c2cccs2)Sc2ccccc21 | 18µM* | 12% | ? | -1% | -6% | -4% |
| 26 | O=C(NCC[C@H]1CC[C@@H](NC(=O)C2CCC2)[C@@H](CO)O1)c1cc(Cl)cc(Cl)c1 | / | 0% | / | 1% | -3% | 2% |
| 27 | O=C(O)Cc1ccc(C(=O)c2ccc(Cl)cc2Cl)s1 | -6% | -7% | -2% | -20% | 35µM* | -1% |
| 28 | NC(=O)Cc1ccc(C(=O)c2ccc(Cl)cc2Cl)s1 | -10% | -8% | -2% | -1% | -17% | -2% |
| 29 | CCOc1ccc(NC(=NCc2ccc3c(c2)OCO3)SC2CC(=O)N(c3ccc(OCC)cc3)C2=O)cc1 (stereo not given) | 11% | -4% | 3% | -5% | -9% | 8% |
| 30 | CCOc1ccc(NC(=NCc2ccc3c(c2)OCO3)SC2CC(=O)N(c3ccc(C(=O)O)cc3)C2=O)cc1 (stereo not given) | -11% | ? | 0% | 28µM* | -15% | 1% |
| 31 | O=C1NC[C@H](Cc2ccc(O)cc2)N(C[C@@H]2CCCN2C[C@H](Cc2ccccc2)N2C[C@H](Cc3ccc(O)cc3)N(CC3CCCCCC3)C(=O)C2=O)C1=O | / | 2% | / | -13% | ? | 12% |
| 32 | COc1cccc2cc(/C(=N/O)c3ccccc3)oc12 | 29% | 6% | 1% | -19% | 50µM* | 23% |
| 33 | COCCN(C(=O)CSCC(=O)Nc1cccc(C)c1)c1c(N)n(Cc2ccccc2)c(=O)[nH]c1=O | -3% | -9% | -1% | -7% | 3% | 5% |
| 34 | CCCn1c(N)c(N(CCOC)C(=O)CSCC(=O)Nc2cccc(C)c2)c(=O)[nH]c1=O | 31% | 100µM* | 1% | -15% | 9% | 3% |
| 35 | CC(=O)Nc1ccc(Nc2nc3ccccc3nc2NS(=O)(=O)c2ccc(Cl)c([N+](=O)[O-])c2)cc1 | 6% | -17% | 0% | ? | 79µM* | -10% |
| 36 | CC(=O)Nc1ccc(S(=O)(=O)Nc2nc3ccccc3nc2Nc2ccc(N)cc2)cc1 | ? | -11% | ? | ? | -4% | -7% |
| 37 | CC(C)Oc1ccc(CN2CCC2(C)C(=O)Nc2cnc3ccccc3c2)cc1 (stereo not given) | / | 3% | / | -26% | 2% | 19% |
| 38 | COc1cc(C(c2c(C(=O)O)[nH]c3ccccc23)c2c(C(=O)O)[nH]c3ccccc23)ccc1OCc1ccccc1 | 4% | 1% | -1% | 40µM* | -26% | -4% |
